ARNT-TACC3 inh: disruptors of ARNT/TACC3 protein interaction, primary screen, biochemical, AlphaScreen, single concentration. Transforming acidic coiled-coil-containing protein 3 (Homo sapiens), Q9Y6A5. AlphaScreen His-ARNT PAS-B/GST-TACC3 binding, luminescence; TACC3 fragment carries E629A point mutation. inhibition, % at 9.99 µM. 390,000 tested, 0.66% active. AID 623870, 2012;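 active = mean inhibition of replicates at least 50% and at least half of replicates each reaching 50%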;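 note: 0% = complete ARNT plus TACC3 wells and 100% = ARNT alone without TACC3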
MLL AF4-AF9 inh: inhibitors of AF4 peptide binding to AF9, primary screen, biochemical, AlphaScreen, biotin-AF4 peptide, FLAG-AF9, single point; Protein AF-9 (Homo sapiens), P42568; inhibition, % at 10 µM; 350,000 tested, 0.47% active; AID 651704, 2012;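 active = every replicate reaching a set inhibition limit, whatever the replicate mean, cut at about 25% in these data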;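 note: 0% = plate neutral control median and 100% = total signal loss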
S100A4 MyoIIA: inhibitors of S100A4-myosin IIA peptide binding, primary screen, biochemical, fluorescence polarization, TAMRA-MyoIIA peptide | inhibition, % at 10.7 µM | AID 652163, 2013 | 360,000 tested, 0.14% active;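 active = mean inhibition of at least 70% across replicates, with every replicate also reaching that level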
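incubation = readout 5 min after mixing, signal stable up to 60 min | system = S100A4 monomer protein | buffer or medium = HEPES pH 7.2 with CaCl2, KCl, NaCl, DTT, Triton | benchmarks = neutral control DMSO, positive control TFP | also added = fluorescent myosin IIA peptide, 5 nM | compound dosing = one concentration per compound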
Yeast UUG start: modulators of yeast start codon fidelity, primary screen, whole organism, S. cerevisiae, single point, plate reader; S. cerevisiae UUG-firefly luciferase reporter, luminescence/redox ratio; activity score, % at 18.7 µM; 0.13% of 350,000 active; AID 602363, 2012;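 active = replicate mean at a twofold rise or more, about +100% in these data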;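 also: firefly luciferase made from a UUG start codon reports start codon fidelity; reporter light over untreated wells divided by growth signal over untreated wells; some hits fall short of that in this replicate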
E-selectin induc: E-selectin induction in HUVECs, primary screen, imaging, HUVEC, immunofluorescence imaging, single point; normalized: neutral wells 0, TNF-alpha wells 100; activation, % at 7.58 µM; 260,000 tested, 0.37% active; P16581;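 active = mean E-selectin-positive cell signal at least 10% of the positive control, reached in at least 60% of replicates, without over 20% cell loss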
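Test system – human umbilical vein endothelial cells (HUVEC), E-selectin induction · Input – 3,000 HUVEC seeded per well · Buffer or medium – EGM-2, gelatin · Compound dosing – single-point compound dose · Detection – immunofluorescence imaging · Measure – percent E-selectin-positive cells · Controls – TNF-alpha high, DMSO low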
ERAP1 HTS inh: human ERAP1 aminopeptidase inhibitors, primary screen, biochemical, single point, plate reader. Endoplasmic reticulum aminopeptidase 1 (Homo sapiens), Q9NZ08. 340,000 tested, 0.15% active. recombinant ERAP1, Leu-AMC fluorescence, 60 min. inhibition, % at 10.7 µM;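 active = mean replicate inhibition of at least 30%, or all replicates individually reaching that 30% level; inactive = mean below 30% and not every replicate reaching it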;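 note: 0% = neutral control wells and 100% = L-leucinethiol positive control wells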
AlphaScreen ctr: AlphaScreen signal interference compounds, dose response, artefact control for ARNT-TACC3 interaction inhibitor project, biochemical, luminescence, cherry-pick. shares compounds with ARNT-TACC3 inh. His-ARNT PASB-GST AlphaScreen artifact counter-screen. AC50, µM (series often up to 68 µM), inactives show top-dose activity change, negative = signal decrease. 1,200 tested, 50% active;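 active = every separate test run was called active for a drop in luminescence, with AC50 within twice the top valid dose, actives reach about 71 µM in these data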
Numbers without * were called inactive; / = no result given; [ ] = remark or other dose. An excerpt weighted towards active compounds, which were near 1.3% of everything screened.

No.	canonical_smiles	ARNT-TACC3 inh	MLL AF4-AF9 inh	S100A4 MyoIIA	Yeast UUG start	E-selectin induc	ERAP1 HTS inh	AlphaScreen ctr
1	O=c1oc2c3c4c(cc2s1)CCCN4CCC3	active	/	/	-24	/	/	44µM*
2	O=C(CN1C(=O)/C(=C\c2cccs2)SC1=S)Nc1cccc(C(=O)O)c1	57*	1	-3	8	0	/	-10%
3	CSc1ccccc1NC(=O)CN(C)C(=O)COc1cccc2cccnc12	67*	0	2	-3	0	2	69µM*
4	O=C(NCCCN1CCOCC1)c1cc(-c2ccc(O)cc2)on1	0	9	1	-13	-1	-5	/
5	O=C(NCCN1CCOCC1)c1cc(-c2ccc(Br)cc2)on1	-14	/	/	-8	/	/	/
6	O=C(NCCN1CCOCC1)c1cc(-c2ccccc2)on1	-2	/	/	-29	/	/	2%[38 µM]
7	O=C(NCCCN1CCOCC1)c1cc(-c2ccccc2)on1	0	1	-4	-11	/	-4	10%[38 µM]
8	Nc1nnc2c(n1)CCCC2	55*	/	/	-43	/	/	-10%
9	C1CCc2nc3c(nc2C1)CCCC3	-7	-2	8	-13	/	/	/
10	CN(C)C(=O)C[C@H]1CC[C@H]2[C@@H](COc3ccc(NC(=O)c4ccc(F)cc4)cc3C(=O)N2C)O1	/	2	/	/	0	/	/
11	COCC(=O)N(C)C[C@H]1Oc2ncc(-c3ccccc3C)cc2C(=O)N([C@H](C)CO)C[C@@H]1C	-4	-1	3	1	0	-1	/
12	CC(C)c1ccc(O)c(NC(=O)c2ncn[nH]2)c1	31*	/	-8	-16	/	0	-7%
13	O=c1oc2ccccc2c(O)c1C=NCc1ccccn1	58*	/	/	-36	/	/	1%
14	C[C@@H]1CCCCO[C@H](CN(C)S(=O)(=O)c2cccs2)[C@@H](C)CN([C@H](C)CO)C(=O)c2cc(NS(=O)(=O)c3ccccc3)ccc2O1	-8	-10	-1	-7	/	-5	/
15	C[C@@H]1CN([C@H](C)CO)C(=O)c2cc(NC(=O)c3ccncc3)ccc2O[C@@H]1CN(C)S(=O)(=O)c1cccs1	-6	-2	-57	-11	0	2	/
16	Cc1ccc(C2=CSC3=NS(=O)(=O)CCN23)cc1	50*	0	3	/	/	0	-8%
17	Cc1ccc(C)c(C2=CSC3=NS(=O)(=O)CCN23)c1	-4	/	/	-5	/	/	/
18	C[C@H]1CN([C@@H](C)CO)S(=O)(=O)c2ccc(C#Cc3ccccn3)cc2O[C@H]1CN(C)C(=O)C1CC1	26	-3	9	5	0	1	/
19	C[C@@H]1CN([C@H](C)CO)S(=O)(=O)c2ccc(C#Cc3ccccn3)cc2O[C@@H]1CN(C)C(=O)C1CC1	51*	-2	5	15	-1	1	-5%[42 µM]
20	Cn1ccnc1SCC(=O)Nc1cccc2ccccc12	6	/	/	-6	/	/	/
21	CCN(C(=O)CSc1nccn1C)c1cccc2ccccc12	68*	1	0	-18	/	1	3%
22	Cc1ccc(-c2nc(NCCN3CCOCC3)c3ccccc3n2)cc1	6	/	/	-19	/	/	/
23	CN1CCN(c2nc(-c3ccccn3)nnc2-c2ccccc2)CC1	/	/	/	/	/	/	0.55µM*
24	OCCCNc1nc(-c2ccc(Cl)cc2)nnc1-c1ccccc1	-10	/	/	-12	/	/	/
25	c1ccc(-c2nnc(-c3ccccn3)nc2NCc2ccccn2)cc1	/	/	/	/	/	/	0.7µM*
26	c1ccc(-c2nnc(-c3ccccn3)nc2NCCN2CCOCC2)cc1	/	/	/	/	/	/	0.83µM*
27	CC(C)(C)CCNc1nc(-c2ccccn2)nnc1-c1ccccc1	/	/	/	/	/	/	2.2µM*
28	CCNC(=O)C[C@H]1CC[C@@H]2[C@@H](COc3ccc(NC(=O)Cc4cccs4)cc3C(=O)N2C)O1	7	-1	18	-20	0	-2	/
29	COc1ccc(NC(=O)Nc2ccc3c(c2)C(=O)N([C@@H](C)CO)C[C@@H](C)[C@@H](CN(C)Cc2ccccc2)O3)cc1	5	6	-8	-1	0	-1	/
30	CC(=O)Nc1ccc2c(c1)C(=O)N(C)[C@@H]1CC[C@H](CC(=O)NC3CCCCC3)O[C@@H]1CO2	-31	/	/	-8	0	/	/
31	C[C@@H]1CN([C@H](C)CO)C(=O)c2ccccc2-c2ccccc2CO[C@H]1CN(C)S(=O)(=O)c1cn(C)cn1	-3	5	3	/	0	-1	/
32	c1ccc(-c2nnc(-c3ccccn3)nc2NCCc2ccccn2)cc1	/	/	/	/	/	/	1.8µM*
33	O=C(N/N=C/c1ccccc1O)C1SCCCS1	56*	-4	-2	/	3	-3	-28%
34	O=C(CCSCCC(=O)NN=Cc1ccccc1O)NN=Cc1ccccc1O	/	-2	1	/	0	1	/
35	C[C@H]1CN([C@@H](C)CO)C(=O)CCCn2cc(nn2)CO[C@H]1CN(C)Cc1ccc(O)cc1	-5	0	-108	-6	0	-2	/
36	NC1=NN=C(N2N=C(c3ccc(Br)cc3)CC2(O)C(F)(F)F)n2ncnc2C1 (stereo not drawn)	0	-2	0	/	/	-1	/
37	NC1=NN=C(N2N=C(c3ccccc3)CC2(O)C(F)(F)F)n2ncnc2C1 (stereo not drawn)	54*	0	6	/	0	-1	-1%
38	CNC[C@@H]1OCCCC[C@@H](C)Oc2ccc(NS(=O)(=O)c3ccccc3)cc2C(=O)N([C@@H](C)CO)C[C@@H]1C	3	-3	-31	10	0	1	/
39	COc1ccc(/C=N/Nc2nncn2N)cc1Br	55*	0	-6	-17	0	0	-19%
40	COc1cc(/C=N/Nc2nncn2N)ccc1OCc1c(C)no[n+]1[O-]	6	4	0	-17	/	-4	/
41	C[C@H](CO)N1C[C@H](C)[C@H](CN(C)C(=O)Nc2cccc3ccccc23)OCCCC[C@H](C)Oc2ccc(NC(=O)CCCN(C)C)cc2C1=O	59*	13	-17	-5	0	0	-23%[38 µM]
42	C[C@@H]1CCCCO[C@@H](CN(C)C(=O)Nc2cccc3ccccc23)[C@H](C)CN([C@H](C)CO)C(=O)c2cc(NS(=O)(=O)c3cn(C)cn3)ccc2O1	28	/	/	0	0	/	/
43	C[C@@H]1CCCCO[C@@H](CN(C)C(=O)Nc2cccc3ccccc23)[C@H](C)CN([C@@H](C)CO)C(=O)c2cc(NS(=O)(=O)c3cn(C)cn3)ccc2O1	55*	/	/	-4	0	/	10µM*

One compound at a time (already shown). Order of values: ARNT-TACC3 inh	MLL AF4-AF9 inh	S100A4 MyoIIA	Yeast UUG start	E-selectin induc	ERAP1 HTS inh	AlphaScreen ctr
`NC1=NN=C(N2N=C(c3ccc(Br)cc3)CC2(O)C(F)(F)F)n2ncnc2C1` (stereo not drawn) as listed: 0	-2	0	/	/	-1	/
`CNC[C@@H]1OCCCC[C@@H](C)Oc2ccc(NS(=O)(=O)c3ccccc3)cc2C(=O)N([C@@H](C)CO)C[C@@H]1C` as listed: 3	-3	-31	10	0	1	/
`C[C@@H]1CCCCO[C@@H](CN(C)C(=O)Nc2cccc3ccccc23)[C@H](C)CN([C@@H](C)CO)C(=O)c2cc(NS(=O)(=O)c3cn(C)cn3)ccc2O1` as listed: 55*	/	/	-4	0	/	10µM*
`C[C@@H]1CCCCO[C@@H](CN(C)C(=O)Nc2cccc3ccccc23)[C@H](C)CN([C@H](C)CO)C(=O)c2cc(NS(=O)(=O)c3cn(C)cn3)ccc2O1` as listed: 28	/	/	0	0	/	/
`O=C(N/N=C/c1ccccc1O)C1SCCCS1` as listed: 56*	-4	-2	/	3	-3	-28%

Source: PubChem BioAssay
